Reference: patent US20150166646A1, “Methods and Compositions for Treating or Diagnosing Melanoma” (The Wistar Institute of Anatomy and Biology, priority 2012, published 2015)

System: macrophages
Experiment: Macrophage growth (WST-1) and cell death
Assay type: cell-based, human
Details: 72 hours

`CCCS(=O)(=O)Nc1ccc(F)c(C(=O)c2c[nH]c3ncc(Cl)cc23)c1F` [PLX4720] was tested, and the macrophage growth was “promotes macrophage growth”.
